The values below come from paper PMC8163216, “Macrocycle synthesis strategy based on step-wise “adding and reacting” three components enables screening of large combinatorial libraries” (Chemical Science, 2020).

The target of this test is human thrombin (Homo sapiens, UniProt P00734). The experiment in a line: Determination of the inhibitory constants of purified macrocycles (thrombin, fluorogenic substrate Z-Gly-Gly-Arg-AMC). The note with it: for Ki: purified macrocycle, 2 nM thrombin, 50 μM Z-Gly-Gly-Arg-AMC, Ki from IC50 by Cheng-Prusoff. The protocol:
Determination of the inhibitory constants of macrocycles
The IC50s of macrocycles were determined by measuring the residual activity of thrombin at different dilutions of macrocycle using a fluorogenic substrate. The reactions were performed in a volume of 150 µl in 96-well plates. A volume of 50 µl of 2-fold dilutions of macrocycle in assay buffer (10 mM Tris-Cl [pH 7.4], 150 mM NaCl, 10 mM MgCl2, 1 mM CaCl2, 0.1% w/v BSA, 0.01% v/v Triton-X100) were pipetted to the wells. A volume of 50 µl of thrombin (6 nM) in assay buffer was added to each well to reach a final concentration of 2 nM and was incubated for 15 min. A volume of 50 µl of the fluorogenic substrate Z-Gly-Gly-Arg-AMC (150 µM) in assay buffer containing 3% DMSO was added to reach a final substrate concentration of 50 µM and 1% DMSO. Fluorescence intensity was measured for 30 min using an Infinite M200Pro plate reader (Tecan; excitation at 368 nm, emission at 467 nm) with a read every minute.
Sigmoidal curves were fitted to the data using Prism 5 (GraphPad software) and the following dose- […]
wherein x is macrocycle concentration, y is % protease activity, and p is Hill slope. IC50 values were derived […]
The inhibitory constants (Ki) were calculated using the following equation of Cheng and Prusoff: […]
wherein IC50 is the functional strength of the inhibitor, [S]0 is the total substrate concentration, and Km is the Michaelis-Menten constant. The Km for thrombin and the substrate Z-Gly-Gly-Arg-AMC was determined to […]

In the case of `N=C(N)NCCCC[C@@H]1NC(=O)C[C@H]2CCCN2C(=O)CN(Cc2ccco2)Cc2ccccc2CSC[C@@H](C(N)=O)NC1=O`, the Ki (as a rule, a measure of affinity in units of concentration, obtained from inhibition or displacement) worked out at 12.8 nM.

For `N=C(N)Nc1ccc(C[C@@H]2NC(=O)C[C@H]3CCCN3C(=O)CN(Cc3ccco3)Cc3ccccc3CSC[C@@H](C(N)=O)NC2=O)cc1`, the Ki turned out to be 4.2 nM. Also, the “fold improvement of Ki over parental macrocycle 7” value (thrombin Ki relative to 7) worked out at 14 fold.
